GLP1R inv ag: acts as inverse agonist at human GLP-1 receptor; Potency, µM (series often up to 38.3 µM), without a hit: top-dose activity change, negative = inhibition, most hits filed as inhibitors; HEK293 GLP-1R CRE-luciferase, luminescence, 24 h; GLP-1R form is constitutively active; P43220; 410,000 compounds, 1.6% hits; AID 624417; also: potency is read from the fitted curve at half-maximal effect; % is scaled to controls: 0 for no effect and ±100 for the full control effect; nearly all actives have a fitted effect of over 55% in size
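Inverse agonists were sought by their lowering of basal cAMP reporter luciferase output in HEK293 cells stably carrying constitutively active human GLP-1R, after 24 h compound treatment.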
Pin1 inh: blocks the human prolyl isomerase Pin1 | Q13526 | Pin1 FP peptide displacement, HiFluor488, 10 min | Potency, µM (titrated, usually from 115 µM), inactives show at the top dose activity, negative = inhibition, hits mostly inhibitors | 390,000 compounds, 0.009% hits | AID 504891; active = well fitted inhibition curve with a large enough effect in the polarisation, with a control signal flat, not every such curve was filed as active; inconclusive = small, poorly fitted or top-dose-only effect, or effect the other way, or a change in a side signal; inactive = no such curve, though single readings can be large or run the other way; the % refers to the polarisation; also: potency is read from the fitted curve at half-maximal effect; % is scaled to controls: 0 for no effect and ±100 for the full control effect
GLP-1R agonist: GLP-1 receptor (human) agonism | HEK293 GLP-1R CRE-luciferase, luminescence, 4-6 h; cells express a hypersensitive GLP-1R form | AID 624172 | P43220 | Potency, µM (doses to about 45.6 µM), without a hit: at the highest dose activation, actives largely listed as activators | 380,000 compounds, 0.007% hits; also: potency is read from the fitted curve at half-maximal effect; % of control where 0% means no effect
miR-21 reporter: miR-21 reporter, rising signal | HeLa miR-21 FLuc reporter, luciferase, 48 h | Potency, µM (doses to about 38.3 µM), inactives show at the top dose reporter change, positive = more light | 340,000 tested, under 10 active | AID 2288; active = well fitted rising curve with a large enough effect; inconclusive = small, poorly fitted or top-dose-only effect; inactive = no such curve, though single readings can be large or run the other way;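 note: % of control where 0% means no effect; miR-21 action dims this reporter so a rising signal means less miR-21 action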
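HeLa miR-21-FLuc reporter line, endogenous miR-21; 2000 cells/well in DMEM/10% FBS; compound titration up to ~40uM final, 48 h, 37 degree Celsius; luciferase detection reagent, 15 min lysis, CCD luminescence.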
PTHR1 agonist: PTHR1 (human) receptor agonism. Q03431. HEK293 GP2 PTHR1 cells, GloSensor cAMP luminescence, 1 h. Potency, µM (series often up to 115 µM), inactives show top-dose activation, hits mostly activators. 410,000 compounds, 0.075% hits; also: potency is read from the fitted curve at half-maximal effect; nearly all actives have a fitted effect of over 55% in size
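HEK-293-derived GP2 cells expressing PTHR1 and a GloSensor cAMP reporter, 3,000/well, plated overnight, given luciferin plus IBMX (each 0.5 mM as added) for 1 h at 37 °C, then compound for 1 h at 37 °C. Luminescence was read after 15 min at room temperature.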
GLP1R cytotox: cytotoxicity in counter-screen for GLP-1R inverse agonists; AID 624418; Potency, µM (highest dose often 38.3 µM), inactives show top-dose activity change, negative = inhibition, hits mostly inhibitors; HEK293 cAMP-luciferase reporter cells, luminescence, 24 h; 410,000 compounds, 0.13% hits;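 also: loss of luciferase light is scored as toxicity; potency is read from the fitted curve at half-maximal effect; % is scaled to controls: 0 for no effect and ±100 for the full control effect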
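Compound-treated cells are incubated 24 hr at 37 deg C under 5% CO2 after a 12 hour attachment period, then luciferase detection reagent is added and luminescence is measured following 12 min at room temperature; lowered signal indicates toxicity.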
Starred values were filed as active, the others as inactive; i = inactive; ? = inconclusive; . = no result given; [ ] = dose if it differs, or a comment. Only some compounds are listed: those with a hit (about 1.7% of all), similar ones and a draw of the others. Unless noted, calls follow the shape of the dose curve; as a rule, active = well fitted curve in the direction sought with a large enough effect; inconclusive = small, poorly fitted or top-dose-only effect, or another doubt; inactive = no such curve, though single readings can be large; an effect the other way counts as inactive or inconclusive.

Codes – A = GLP1R inv ag; B = Pin1 inh; C = GLP-1R agonist; D = miR-21 reporter; E = PTHR1 agonist; F = GLP1R cytotox
O=C(c1ccccc1)C1CN(c2ccccc2)CC1c1ccc(Cl)cc1 (stereo not given)
  A: 0%	B: -3%	C: -9%	D: 1%	E: i	F: 13%

O=C(CSc1n[nH]c(-c2ccccc2Cl)n1)N1CCN(c2ccccc2)CC1
  A: -7%	B: 1%	C: .	D: -7%	E: -14%	F: -6%

Cc1ccc(C2=N/C(=C/N3CCOCC3)C(=O)O2)cc1
  A: 61%	B: -9%	C: 6%	D: -71%	E: -45%[57.5 µM]	F: 19%

Cc1cccc2cc(/C=C3\N=C(c4ccccc4)OC3=O)c(N3CCOCC3)nc12
  A: 3%	B: 76µM*	C: 6%	D: 0%	E: -3%[57.5 µM]	F: -6%

CC1CCC/C=C/C(=O)c2c(O)cc(O)cc2CC(=O)O1 (stereo not given)
  A: 5µM*	B: -13%	C: -10%	D: ?	E: -96%	F: ?

C[C@@H]1Cc2c(O)c(O)cc(O)c2C(=O)O1
  A: 5%	B: .	C: -3%	D: 4%	E: -6%	F: 3%

COc1ccccc1NC(=O)N(Cc1ccccc1)c1ccccn1
  A: 7.1µM*	B: 0%	C: 1%	D: -18%	E: -15%[57.5 µM]	F: 13%

Cc1ccc(CNC(=O)Cc2c(C)c3c(cc(C)c4c(C)coc43)oc2=O)cc1
  A: 6%	B: -9%	C: .	D: 3%	E: 16µM*	F: 8%

COc1ccccc1NS(=O)(=O)c1ccc2c(c1)CCC(=O)N2
  A: .	B: -6%	C: .	D: .	E: .	F: .

COc1ccc(CC(=O)Nc2nc(-c3ccc(F)c(F)c3)cs2)cc1
  A: 11µM*	B: 9%	C: 8%	D: 19%	E: -34%	F: -1%

O=C(Cc1ccc(F)cc1)Nc1nc(-c2ccc(F)c(F)c2)cs1
  A: ?	B: -1%	C: -5%	D: 21%	E: -93%	F: -8%

COc1cccc([C@@H]2Oc3ccc(Br)cc3C(=O)[C@H]2OC(=O)NC2CCCC2)c1
  A: 11µM*	B: 0%	C: -3%	D: -8%	E: -14%	F: 0%

CC[C@H](C)[C@@H](NC(=O)O[C@@H]1C(=O)c2cc(Br)ccc2O[C@H]1c1cccc(OC)c1)C(=O)OC
  A: ?	B: 3%	C: -2%	D: -23%	E: -20%	F: 1%

Cc1ccc(-c2nn(-c3cccc(F)c3)cc2CN(Cc2nccn2C)C(C)C)o1
  A: ?	B: 7%	C: 0%	D: -12%	E: i	F: ?

Cc1cccc(-n2cc(CN3CCN(Cc4nccn4C)CC3)c(-c3cccc(F)c3)n2)c1
  A: 4.5µM*	B: -2%	C: 14%	D: -1%	E: i	F: ?

COc1ccc(-n2cc(CN3CCCC3)c(-c3cccc(F)c3)n2)cc1
  A: ?	B: 28%	C: 15%	D: -13%	E: ?	F: ?

Cc1ccc(-c2nn(-c3cccc(F)c3)cc2CN2CCN(c3ccccn3)CC2)o1
  A: 10µM*	B: 31%	C: -1%	D: 16%	E: i	F: 5%

CC(=O)N1CCCN(Cc2cn(-c3ccc(C)cc3)nc2-c2cccc(C)c2)CC1
  A: 10µM*	B: -2%	C: 24%	D: -13%	E: -1%	F: -15%

Cc1c(Cl)cccc1NC(=O)c1ncn(-c2ccccc2)n1
  A: 11%	B: 1%	C: .	D: -39%	E: i	F: -2%

COc1cccc2cc(C(=O)NC3CC4CCC3C4)oc12 (stereo not given)
  A: 10µM*	B: 1%	C: 3%	D: -20%	E: -33%	F: -8%

Cc1ccc(-c2nc3c(cnn3-c3ccccc3)c(=O)n2-c2cccc(Cl)c2)cc1
  A: 4.5µM*	B: 29%	C: .	D: -14%	E: i	F: -2%

COc1ccc(C(=O)N(Cc2ccccc2)Cc2ccccc2)cc1COc1ccc(NC(C)=O)cc1
  A: .	B: 2%	C: .	D: .	E: .	F: .

O=C(CN1CCCCCCC1)NC(=O)NC1CCCCC1
  A: 4µM*	B: 1%	C: 5%	D: -28%	E: i	F: 1%

Cc1cc2c(s1)c1cnn(Cc3ccc(C(F)(F)F)cc3)c(=O)c1n2C
  A: .	B: -10%	C: .	D: .	E: .	F: .

CC(Oc1ccccc1F)C(=O)N1CCC(c2nc3ccccc3o2)CC1 (stereo not given)
  A: -30%	B: -1%	C: .	D: 3%	E: i	F: -1%

O=C(Nc1ccc2c(c1)OCO2)c1cc(C2CCCCN2C(=O)CCCc2ccccc2)on1 (stereo not given)
  A: 8.9µM*	B: .	C: 13%	D: .	E: -37%	F: -20%

Cc1cccc(OCCn2c(CCNC(=O)C3CCCCC3)nc3ccccc32)c1
  A: .	B: 4%	C: .	D: .	E: .	F: .

O=C1CC(N(Cc2cccs2)C(=O)Nc2ccccc2)C(=O)N1c1ccc(Cl)cc1 (stereo not given)
  A: 8.9µM*	B: 1%	C: -28%	D: -2%	E: i	F: -16%

CC(C)(C)NC(=O)CSc1nc2ccccc2n1-c1ccccc1
  A: 10µM*	B: -12%	C: 7%	D: 10%	E: ?	F: 4%

CC(=O)NNC(=O)CSc1nnc(-c2ccccc2)c(-c2ccccc2)n1
  A: 5%	B: ?	C: 17%	D: 1%	E: -10%	F: 4%

CC(C)(C)NC(=O)CSc1nnc(-c2ccccc2)c(-c2ccccc2)n1
  A: 8.9µM*	B: -11%	C: 8%	D: 11%	E: -29%	F: 4%

CCc1ccc(-n2c(=O)c3sc4ccccc4c3n(Cc3cccc(F)c3)c2=O)cc1
  A: 16%	B: -1%	C: -2%	D: 0%	E: -18%	F: -4%

Cc1ccc2c(CC(=O)Nc3ccc(S(=O)(=O)N4CCCC(C)C4)cc3)coc2c1 (stereo not given)
  A: 10µM*	B: 35%	C: .	D: -4%	E: -9%	F: -19%

O=c1c2ccccc2nc(SCc2ccccc2)n1Cc1ccco1
  A: 11µM*	B: 27%	C: 9%	D: -7%	E: -3%[57.5 µM]	F: 18%

FC(F)(F)COc1cc(-c2nnc(SCc3ccccc3)n2Cc2ccco2)cc(OCC(F)(F)F)n1
  A: 10µM*	B: -3%	C: 13%	D: 11%	E: i	F: 5%

Cc1ccc(CSc2nc3ccccc3c(=O)n2Cc2ccco2)cc1
  A: ?	B: 13%	C: 1%	D: -10%	E: i	F: 17%

Cc1ccc(C(=O)c2cc(O)c(O)c([N+](=O)[O-])c2)cc1
  A: .	B: .	C: -3%	D: .	E: .	F: .

S=C(CSc1ccccc1)Nc1cccc2ccccc12
  A: 6.3µM*	B: .	C: -1%	D: .	E: -5%	F: ?

S=C(Nc1cccc2ccccc12)Nc1cccc2ccccc12
  A: ?	B: 0%	C: 10%	D: .	E: -10%	F: -19%

O=S(=O)(Nc1cccc2ccccc12)c1cccc2ccccc12
  A: .	B: -3%	C: .	D: .	E: .	F: .

Cc1ccc(N/N=C(\C#N)C(N)=S)cc1C
  A: 0.28µM*	B: -1%	C: 7%	D: -15%	E: -34%	F: ?

O=C(Nc1ccccc1)C1CCN(c2ncc(-c3ccc4c(c3)OCCCO4)s2)CC1
  A: .	B: -2%	C: .	D: .	E: .	F: .

CCOc1ccc(CNC(c2ccccc2)c2ccccc2)cc1
  A: 7.1µM*	B: -3%	C: 10%	D: 0%	E: -31%	F: 3%

Cn1c(-c2ccccc2O)cc2ccccc21
  A: 10µM*	B: -3%	C: 1%	D: 1%	E: -21%	F: -9%

NC(=O)C1CCN(c2ncc(-c3ccc4c(c3)OCCCO4)s2)CC1
  A: .	B: -6%	C: .	D: .	E: .	F: .

Three compounds already listed, arranged by molar mass, low to high:
Codes – A = GLP1R inv ag; B = Pin1 inh; C = GLP-1R agonist; D = miR-21 reporter; E = PTHR1 agonist; F = GLP1R cytotox
O=S(=O)(Nc1cccc2ccccc12)c1cccc2ccccc12
  A: .	B: -3%	C: .	D: .	E: .	F: .

CC(C)(C)NC(=O)CSc1nnc(-c2ccccc2)c(-c2ccccc2)n1
  A: 8.9µM*	B: -11%	C: 8%	D: 11%	E: -29%	F: 4%

FC(F)(F)COc1cc(-c2nnc(SCc3ccccc3)n2Cc2ccco2)cc(OCC(F)(F)F)n1
  A: 10µM*	B: -3%	C: 13%	D: 11%	E: i	F: 5%

With a hit mark in PTHR1 agonist, among the entries above:
smiles	GLP1R inv ag	Pin1 inh	GLP-1R agonist	miR-21 reporter	PTHR1 agonist
Cc1ccc(CNC(=O)Cc2c(C)c3c(cc(C)c4c(C)coc43)oc2=O)cc1	6%	-9%	.	3%	16µM*
